Measured values reported in patent publication EP2649091B1, “IMMUNE RESTRICTED PEPTIDES WITH INCREASED EFFICACY” (Stichting Het Nederlands Kanker Instituut, priority 2010, dated 2012).

Molecular target: HLA-A0201 (Homo sapiens, UniProt P04439, D140Y/D185E/D98H/E176V/E277Q/G131W/G231S/I119V/I121R/I166T/I218V/L300P/L318F/N151K/N90K/P208A/P217A/Q86G/Q94H/R138H/R169H/T345S)
Type: binding
Also: test concentration or dose not given here.

**Q.** For [3-PYRA]ILGFVFTL, which “% inhibition at T=4H and T=24H FP 4H” value is on record?
**A.** 87%

**Q.** And the “% inhibition at T=4H and T=24H FP 24H” value?
**A.** 85%
